Biological target: T1, INCENP N-terminal domain (1-58), His- and Avi-tagged, biotinylated (UniProt Q9NQS7 1-58, biotinylated (Avi-tag, co-expressed E. coli biotin ligase BirA))
T1 construct: range 1-58; Expressed in E. coli BL21(DE3); also called INC-N; INCENP N-terminal domain (AA 1-58); not shown: His-tag and Avi-tag
T1 sequence (looked up): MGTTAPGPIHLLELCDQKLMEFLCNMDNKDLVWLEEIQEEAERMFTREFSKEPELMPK
Experiment: single-point protein ELISA, 200 nM Fab on 50 nM immobilised biotinylated target, protein L-HRP, A450
Method: To rapidly reconfirm the binding and specificity of the obtained Fabs after reformatting into the expression vectors single-point Fab ELISA was performed (FIG. 2). Briefly, 50 nM Avi-tagged targets were immobilized on the prepared NAV-coated and blocked with 0.5% BSA in PBS 96-well ELISA plates. The target coated plates were washed with appropriate buffer (TBST or PBST) and were incubated with 200 nM Fab for 20 minutes and then washed. The washed plates were incubated with protein L conjugated with HRP (1:5000 diluted in TBST) for 30 minutes. Plates were washed and the reaction was developed using the TMB chromogenic substrate (Thermofisher) and subsequently quenched with 1M HCl. Absorbance was read at 450 nm on Epoch plate reader.

binding result: binds
B1: INC-N-02 (Fab, V domains shown)
VH: EVQLVESGGGLVQPGGSLRLSCAASGFNFYSSIHWVRQAPGKGLEWVASIYSYYGSTYYADSVKGRFTISADTSKNTAYLQMNSLRAEDTAVYYCARYSRWGWYTYGAFDYWGQGTLVTVSS
VL: DIQMTQSPSSLSASVGDRVTITCRASQSVSSAVAWYQQKPGKAPKLLIYSASSLYSGVPSRFSGSRSGTDFTLTISSLQPEDFATYYCQQMMWFPITFGQGTKVEIKR
